Measured values: ChEMBL document CHEMBL1127586, “Central cholinergic agents. 6. Synthesis and evaluation of 3-[1-(phenylmethyl)-4-piperidinyl]-1-(2,3,4,5-tetrahydro-1H-1-benzazepi n-8-yl)-1-propanones and their analogs as central selective acetylcholinesterase inhibitors” (J Med Chem, 1994)

Target: T1, Acetylcholinesterase (Rattus norvegicus, UniProt P37136)
T1 sequence (P37136 whole entry): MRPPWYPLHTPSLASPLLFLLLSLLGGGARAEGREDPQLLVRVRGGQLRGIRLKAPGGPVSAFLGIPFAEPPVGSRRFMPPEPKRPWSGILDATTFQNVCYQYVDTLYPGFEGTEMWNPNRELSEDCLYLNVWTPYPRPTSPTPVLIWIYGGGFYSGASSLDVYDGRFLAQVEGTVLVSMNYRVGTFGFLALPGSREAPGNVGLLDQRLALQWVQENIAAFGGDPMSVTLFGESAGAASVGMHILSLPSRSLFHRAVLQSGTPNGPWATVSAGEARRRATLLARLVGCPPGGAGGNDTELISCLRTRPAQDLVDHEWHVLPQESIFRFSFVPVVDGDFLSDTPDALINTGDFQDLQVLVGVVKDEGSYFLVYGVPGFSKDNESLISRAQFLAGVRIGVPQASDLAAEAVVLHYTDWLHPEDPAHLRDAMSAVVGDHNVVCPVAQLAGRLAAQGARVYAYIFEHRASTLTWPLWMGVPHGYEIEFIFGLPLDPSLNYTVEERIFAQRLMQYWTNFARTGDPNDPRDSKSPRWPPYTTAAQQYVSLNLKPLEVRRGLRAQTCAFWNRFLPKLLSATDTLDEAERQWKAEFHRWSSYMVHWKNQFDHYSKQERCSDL

Structure (SMILES)	IC50 [µM]
COc1ccc(CN2CCC(CCC(=O)c3ccc4c(c3)NCCCC4)CC2)cc1	55.2
O=C(CCC1CCN(Cc2ccccc2F)CC1)c1ccc2c(c1)NCCCC2	0.331
COc1ccc(CN2CCC(CCC(=O)c3ccc4c(c3)CCN4)CC2)cc1	13.3
